Reference: patent publication US9192567B2, “Method for treating eye disease or conditions affecting the posterior segment of the eye” (SANTEN SAS, priority 2006, dated 2015)

Test: Intraocular pharmacokinetics of dexamethasone palmitate and dexamethasone following intravitreal administration
Conditions: for DP/D ratio in choroid / DP/D ratio in retina: single intravitreal injection of 0.8% dexamethasone palmitate emulsion
Description: Analytes and internal standard (roxithromycine) were extracted from the tissues using acetonitrile and separated by reverse phase liquid chromatography with a C8 column and a gradient mobile phase. […] The unweighed linear model was applied.
All concentrations are expressed in ng/g.

[1] = rabbit, single intravitreal injection 100 uL of 0.8% dexamethasone palmitate emulsion (800 ug), Day 60

dexamethasone palmitate [DP]
amount of prodrug remaining in retina and choroid (following IVT injection of 800 ug of prodrug, 2 months): considerable amounts
Concentration in retina, Mean (rabbit, single intravitreal injection 100 uL of 0.8% dexamethasone palmitate emulsion (800 ug), Day 7): 93 nmol/g
Concentration in choroid, Mean (rabbit, single intravitreal injection 100 uL of 0.8% dexamethasone palmitate emulsion (800 ug), Day 14): 22 nmol/g
Concentration in aqueous humor, Mean [1]: 0 nmol/g
Concentration in choroid, Mean [1]: 52 nmol/g
Concentration in retina, Mean [1]: 55 nmol/g
DP/D ratio in choroid (rabbit, Day 1): 15.91
DP/D ratio in retina (rabbit, Day 1): 15.14
DP/D ratio in choroid (rabbit, Day 7): 8.58
DP/D ratio in retina (rabbit, Day 7): 8.45
DP/D ratio in choroid (rabbit, Day 14): 2.44
DP/D ratio in retina (rabbit, Day 14): 22.6
DP/D ratio in choroid (rabbit, Day 28): 35.65
DP/D ratio in retina (rabbit, Day 28): 36.5
DP/D ratio in choroid (rabbit, Day 60): 17.33
DP/D ratio in retina (rabbit, Day 60): 25
